Results as given in US6762171B1, “Fatty acid CoA thioester inhibitory substance of PPARα and PPARγ” (Kyorin Pharmaceutical Co, Ltd., priority 2002, dated 2004).

By UniProt entry, the sequences of proteins in these tests, tags left out. Residues count along the entry.
UniProt P37231, 238-503 limits assumed: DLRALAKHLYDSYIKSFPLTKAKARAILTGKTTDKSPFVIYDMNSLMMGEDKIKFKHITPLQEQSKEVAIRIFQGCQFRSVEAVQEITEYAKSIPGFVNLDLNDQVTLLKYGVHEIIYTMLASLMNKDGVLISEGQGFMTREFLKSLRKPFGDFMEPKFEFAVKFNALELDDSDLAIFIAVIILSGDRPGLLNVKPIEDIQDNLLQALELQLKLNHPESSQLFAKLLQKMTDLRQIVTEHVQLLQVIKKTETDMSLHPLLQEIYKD

Molecular target: T1, human-type PPAR γ ligand-binding domain (Homo sapiens, UniProt P37231)
T1 construct: made in house; host or cells: Escherichia coli
Assay: Competition binding with [3H]KRP-297 to 6×His-hPPARγ ligand-binding domain
Conditions: competition with 100 nM [3H]KRP-297; test concentration not given
Source text: Proteins (6×His-hPPARs LBD) tagged 6-copy histidine to the side of N-termini in the ligand-binding domains of human-type PPAR α and PPAR γ were expressed in Escherichia coli, respectively, and purified through a nickel column.

CN(CCOc1ccc(CC2SC(=O)NC2=O)cc1)c1ccccn1 (stereo not shown) [BRL-49,653, rosiglitazone, reference compound]
Binding to the ligand-binding domain of PPARγ: 99%
